Assay results reported in PMC2866327, “Designed Inhibitors of Insulin-Degrading Enzyme Regulate the Catabolism and Activity of Insulin” (PLoS ONE, 2010).

Target: insulin-degrading enzyme (recombinant human IDE) (human) (UniProt P14735)
Test: enzyme inhibition assay (Ki); recombinant human IDE (nominal 1 nM); dose-response of the hydrolysis of IDE substrates (FRET1, SP1, FAβB, 125I-insulin, or insulin by HTRF); the substrate used for the Ki values in the text is not stated

Ki: 110 nM
B1: conventional peptide hydroxamate based on Phe-Arg-Trp-Glu, all L-amino acids (peptide)
peptide: FRWE
modifications: hydroxamic acid moiety attached to the N-terminus, positioned by the inclusion of an α carbonyl moiety; all L-amino acids
